Kd, cooperativity parameter α (cooperative binding model) and half-saturation point (cooperative binding model) data for two substances are collected here from publication PMC4548243, “Nuclear Localization of the DNA Repair Scaffold XRCC1: Uncovering the Functional Role of a Bipartite NLS” (Scientific Reports, 2015).

The target of assay [1] is M1: FITC-GG-XRCC1 (244-248) (human). As to the kind of experiment: fluorescence polarisation; direct titration: serial dilutions of Impα into 100 nM FITC-labeled peptide; FP buffer (20 mM Tris pH 7.7, 125 mM NaCl, 1 mM EDTA, 2 mM TCEP, 5% sucrose, 10 mM NaN3); room temperature (legend: 25 °C); apparent dissociation constants, single-site fit. (Fluorescence polarisation rises when a labelled molecule tumbles more slowly, as on binding a larger partner.)

The target in assay [2] is FL-NLS: FITC-XRCC1 (241–276) (human). The assay is described as above.

For the substance “Impα(70–529)(W184R/W231R) (from UniProt P52293 70-529) (domain or fragment)”, in assay [1], the Kd worked out at 10.4 µM.

Consider “murine Importin α with the Importin β binding domain (IBB) deleted, Impα(70–529) (from UniProt P52293 70-529) (domain or fragment)”, for which the Kd in assay [1] turned out to be 8.4 µM. Also, in assay [2], the cooperativity parameter α (cooperative binding model) worked out at 633 and the half-saturation point (cooperative binding model) was found to be 0.116 µM.
